Protein sequences, listed by entry. Tags and fused reporters are not part of them.
UniProt P34972, whole entry: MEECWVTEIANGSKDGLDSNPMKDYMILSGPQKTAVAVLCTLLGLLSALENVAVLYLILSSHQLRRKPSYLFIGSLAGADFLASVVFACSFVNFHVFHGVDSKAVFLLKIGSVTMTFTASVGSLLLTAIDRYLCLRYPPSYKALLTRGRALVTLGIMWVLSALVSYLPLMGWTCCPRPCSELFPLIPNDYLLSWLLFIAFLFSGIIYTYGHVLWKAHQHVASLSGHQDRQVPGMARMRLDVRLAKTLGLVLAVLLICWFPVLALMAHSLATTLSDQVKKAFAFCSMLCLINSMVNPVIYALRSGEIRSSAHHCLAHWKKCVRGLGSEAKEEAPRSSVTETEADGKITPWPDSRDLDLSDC

In ChEMBL document CHEMBL4422692, “Plant-Based Modulators of Endocannabinoid Signaling” (J Nat Prod, 2019):

Molecular target: Cannabinoid receptor 2 (Homo sapiens, UniProt P34972)
Experiment: Displacement of [3H]-CP55940 from recombinant human CB2 receptor expressed in Sf9 cell membranes co-expressing Galphai3beta1gamma2 measured after 90 mins by scintillation counting method

## C=C(C)[C@@H]1CCC(C)=C[C@H]1c1c(O)cc(CCCCC)cc1O [CANNABIDIOL]
  Ki: 372 nM
